# Ab-14 light chain CDR variants: yeast mating affinities

Data: MIT Lincoln Laboratory AlphaSeq set, Li et al. 2023, doi:10.1038/s41467-023-39022-2, as distributed in FLAb.

Antigen: PDVDLGDISGINAS, a 14-residue peptide of the SARS-CoV-2 spike HR2 region.

The variants keep the heavy chain, the linker and the frameworks of Ab-14 (scFv order VH, a (GGGGS)3 linker, VL).
VH: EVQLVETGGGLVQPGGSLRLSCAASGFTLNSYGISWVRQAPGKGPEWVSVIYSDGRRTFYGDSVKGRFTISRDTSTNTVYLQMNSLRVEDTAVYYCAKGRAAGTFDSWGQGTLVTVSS
VL: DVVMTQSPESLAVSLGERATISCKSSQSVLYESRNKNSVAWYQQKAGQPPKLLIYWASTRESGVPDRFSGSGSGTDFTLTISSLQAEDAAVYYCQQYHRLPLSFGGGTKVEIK

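The starting antibody came from a phage panning campaign against this peptide. The variants were designed computationally from a first round of random CDR variants and then made and measured. Several design methods are mixed in this list. In AlphaSeq, yeast of one mating type display the scFv and yeast of the other type display the target. After mating in shaken culture at 30 °C for 16 h, diploids were selected and their barcode pairs sequenced. Scores were corrected for input abundance and mapped to Kd with protein pairs of known affinity run in the same pool. There are six technical replicates.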

Variants are written as CDR1, CDR2 and CDR3 of the light chain (limits as in the source). Parent: KSSQSVLYESRNKNSVA, WASTRES, QQYHRLPLS.
The Kd shown is the geometric mean over detected replicates; a lower Kd is a better binder.
Where no diploid with the target was found in any replicate, the entry reads "nd": below detection, most likely a poor binder, though not proof of it.
The authors' rule: three or more of the six replicates give a measured affinity, fewer mean a poor binder.
Of ten entries with the parent sequence, four were seen in most replicates (averages 2.2 nM to 240 nM), three in one and three in none, so single entries are noisy.
A sequence that the file lists under several names has all its replicates pooled.
Values of this round are not directly comparable with the first-round values of the same sequences.
Three control strains display no target. For all light chain designs, 4% of the pairings with them gave a signal, with a median of 430 nM and one signal in twenty below 38 nM, so weak values seen in few replicates may be background. The control count says in how many pairings with the empty strains this scFv gave a signal.

With KSSQSVLYESRRKNSVA, WASLRES, QQYHRLPLS the result was nd (0 of 6 replicates; controls 0 of 18).
With KFPQSVLYESRNKNSVA, EASQRES, QQYHRLPLS the result was 650 pM (6 of 6 replicates; controls 1 of 18).
With KFSGEMLYESRNKNSVA, HASERES, QDYHRLPLQ the result was 1.5 nM (6 of 6 replicates; controls 2 of 18).
With QISLNGEDGEPYEDAVA, EGSIADA, QQYHRLPLS the result was 240 nM (3 of 6 replicates; controls 0 of 18).
With KLPQSVLYESRNKNSVA, DASTRES, QQYHRLPLS the result was 270 pM (6 of 6 replicates; controls 3 of 18).
With KLQQSWLYESRNKNSVA, NASTREW, QQYHRLPLS the result was 1.1 nM (6 of 6 replicates; controls 0 of 18).
With KVSWSWLYESRVWNSVA, NASLRES, QQYHRLPLS the result was 6.2 nM (6 of 6 replicates; controls 0 of 18).
With KIMQTLNYESFNVSSVA, GQETRER, QSYHRLPLS the result was 13 nM (6 of 6 replicates; controls 0 of 18).
With KFSQSVLYESRNKNSVA, EASTRES, QQYHRLPLS the result was 490 pM (12 of 12 replicates; controls 1 of 36).
With NVRDSLGYVQNVGSAVA, EASQVEM, QQYYTLPLT the result was 140 nM (3 of 6 replicates; controls 0 of 18).
With TISQLYNMGQFAINSVA, QASLRNE, QQYDRLPLT the result was 19 nM (4 of 6 replicates; controls 0 of 18).
With KVSMSYLLESRNKNSVA, EASTRES, QQYHRLPLS the result was 1.4 nM (6 of 6 replicates; controls 0 of 18).
With KSSQSVPCESRNKNSVA, WASTRES, QQYHRLPLS the result was nd (0 of 6 replicates; controls 0 of 18).
With HLGLVTMSEEAVRNSVA, NNSTREE, QQYDRLPLS the result was 64 nM (6 of 6 replicates; controls 2 of 18).
With KLSGSMLYESRNKNSVA, EASTRES, QQYHRLPLS the result was 620 pM (6 of 6 replicates; controls 2 of 18).
With KSSCSYLYESRNKNSVA, AASTRES, QQYHRLPLS the result was 3.1 nM (6 of 6 replicates; controls 5 of 18).
With KLSGSMLYESRMKNSVA, QASVRMS, QQYHRLPLS the result was 2.4 nM (6 of 6 replicates; controls 0 of 18).
With KSSISYLYESTNTNSVA, EASTRES, QQYHRLPLS the result was 2.0 nM (6 of 6 replicates; controls 0 of 18).
With KQQQSALMEERNFNSVA, HASTRES, QQYHRLPLS the result was 3.3 nM (6 of 6 replicates; controls 1 of 18).
With RLSQSVLQEERNDNSVA, SASTRCS, QQYHRLPLS the result was 2.6 nM (6 of 6 replicates; controls 0 of 18).
With KCDQWVDYGSRNKNSVA, DASTRES, QQYHRLPLS the result was 490 pM (6 of 6 replicates; controls 0 of 18).
With KLSQSVLGEWRNFNSVA, HASTREQ, QDYHRLPLS the result was 73 nM (6 of 6 replicates; controls 0 of 18).

Further variants, results first:

900 pM (6 of 6 replicates; controls 2 of 18) for KLSQSWLYESRNKNSVA, DGSTRES, QQYHRLPLS.
60 nM (6 of 6 replicates; controls 1 of 18) for KLMWSMQYESRNKNSVA, HASYRES, QQYHRLPLS.
490 pM (6 of 6 replicates; controls 3 of 18) for IITQSVMQESRNKRNVA, NTDEREP, QQYDRLPLI.
530 nM (6 of 6 replicates; controls 1 of 18) for KSSQSVLYESENKNPVA, WASTRES, QQYHRYPLS.
1.7 nM (6 of 6 replicates; controls 0 of 18) for QLTENDRGHQAGGGSIA, DATETME, QQYMHLPLS.
33 nM (5 of 6 replicates; controls 0 of 18) for KWSCSVLYESRNKNSVA, WASLRES, QQYHRLPLS.
580 pM (6 of 6 replicates; controls 0 of 18) for KLSQSVPYESRNKNSVA, GASTRES, QQYHRLPLS.
4.8 nM (6 of 6 replicates; controls 3 of 18) for KLSWSWLLESRAKNSVA, NASLRES, QQYHRLPLS.
640 pM (6 of 6 replicates; controls 2 of 18) for KSSQDYLYESRNKNSVA, GASTRES, QQYHRLPLS.
1.3 nM (6 of 6 replicates; controls 0 of 18) for KSSQSVLVESRNSNSVA, DASTRES, QQYSRLPLS.
nd (0 of 6 replicates; controls 0 of 18) for KSSQSVLYESRNKNSVA, YAVTRES, QQYHRLPLS.
120 nM (2 of 6 replicates; controls 1 of 18) for KSSQSDLYESRNKNSVA, WASTRES, QQYIRLPLS.
1.8 nM (6 of 6 replicates; controls 0 of 18) for MISQVMGLNNMYKKSVA, QAEERVT, QQYDHLPLS.
550 pM (6 of 6 replicates; controls 1 of 18) for KLSQQDLYESRNKNSVA, GASTRES, QQYHRLPLS.
6.4 nM (6 of 6 replicates; controls 1 of 18) for KLMWSVEYESRNQNSVA, SASYRED, QQYHRLPLS.
38 nM (6 of 6 replicates; controls 0 of 18) for KSSHSVQYESRNKNHVA, QASTRES, QQYHRLPLS.
570 pM (6 of 6 replicates; controls 4 of 18) for ALSQSMDMTSRNKNSVA, DLSTRMN, QQYHRLPLS.
650 pM (6 of 6 replicates; controls 0 of 18) for KFEQSVLYESRNKNSVA, GASTRES, QQYHRLPLS.
390 pM (6 of 6 replicates; controls 0 of 18) for KVSQSVLYESRNKNSVA, NASLRES, QQYHRLPLS.
11 nM (3 of 6 replicates; controls 0 of 18) for KLQTLTYTANIGESSVA, DVNVHVD, QQYFRLPLS.
490 pM (6 of 6 replicates; controls 3 of 18) for KVSQSMWYESRNKNSVA, DASQRES, QQYHRLPLQ.
840 pM (6 of 6 replicates; controls 0 of 18) for KCSQSVLQETRNKNSVA, SASTRES, QQYHRLPLS.